From PMC5507339, “Small-molecule inhibition of pyruvate phosphate dikinase targeting the nucleotide binding site” (PLoS ONE, 2017)

Molecular target: T1, PPDK from Flaveria trinervia (Flaveria trinervia, UniProt P22221)
T1 construct: His10 (N); TEV cleavage site (N); made in house; host or cells: E. coli BL21 (DE3)
T1 sequence (P22221 80-953): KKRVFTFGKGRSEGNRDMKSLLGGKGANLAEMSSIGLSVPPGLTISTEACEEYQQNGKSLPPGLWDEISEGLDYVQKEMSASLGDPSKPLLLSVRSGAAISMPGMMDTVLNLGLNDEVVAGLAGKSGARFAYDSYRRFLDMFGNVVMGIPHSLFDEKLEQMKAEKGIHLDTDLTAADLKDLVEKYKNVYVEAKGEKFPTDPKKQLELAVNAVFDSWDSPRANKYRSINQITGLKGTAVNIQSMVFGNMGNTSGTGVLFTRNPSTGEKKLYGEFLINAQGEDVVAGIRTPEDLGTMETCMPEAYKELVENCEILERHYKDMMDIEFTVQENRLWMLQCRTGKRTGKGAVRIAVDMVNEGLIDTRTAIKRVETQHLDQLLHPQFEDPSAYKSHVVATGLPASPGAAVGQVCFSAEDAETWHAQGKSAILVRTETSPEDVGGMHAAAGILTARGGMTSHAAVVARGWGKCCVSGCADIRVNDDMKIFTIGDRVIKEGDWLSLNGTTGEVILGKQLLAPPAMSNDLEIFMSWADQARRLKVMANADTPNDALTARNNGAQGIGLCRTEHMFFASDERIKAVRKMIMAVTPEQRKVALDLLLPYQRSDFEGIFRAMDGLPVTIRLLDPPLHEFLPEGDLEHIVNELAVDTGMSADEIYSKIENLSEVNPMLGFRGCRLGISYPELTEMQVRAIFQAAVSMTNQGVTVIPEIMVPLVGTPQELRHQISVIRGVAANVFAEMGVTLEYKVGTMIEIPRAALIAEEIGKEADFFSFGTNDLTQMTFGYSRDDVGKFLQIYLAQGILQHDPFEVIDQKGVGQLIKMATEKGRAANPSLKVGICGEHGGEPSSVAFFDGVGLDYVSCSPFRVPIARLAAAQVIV
Assay type: biochemical

## O=C1Nc2cc(Br)ccc2/C1=C1\N=c2ccccc2=C1NO [BIO, 6-bromoindirubin-3’-monoxime]
  Residual PPDK activity relative to DMSO-treated controls: about 15%
